US20100234592A1, “Corrosion Inhibitors Having Increased Biodegradability and Reduced Toxicity” (priority 2006, published 2010)

How the values were obtained:
[1] = Biodegradability (OECD 306)
Shaking foam test = type: physicochemical; details: 50 ml of a 3% aqueous solution in demineralized water shaken 20 times within 10 seconds; graded weakly foaming, foaming or highly foaming

| Biodegradability [1] [%] | Foaming behavior (Shaking foam test) | Substance |
| --- | --- | --- |
| 81.5 | foaming | N-Cocoyl-DL-methionine N,N-diethyl-(2-hydroxyethyl)-ammonium salt [compound from example 6] |
|  | foaming | N-Cocoyl-DL-methionine morpholinium salt [compound from example 5] |
